From BindingDB's records for PubMed 2795135 (Stanford University, 1989)

Sequences of proteins named here, by UniProt entry; tags and fusion partners are left off.
UniProt P14842, whole entry: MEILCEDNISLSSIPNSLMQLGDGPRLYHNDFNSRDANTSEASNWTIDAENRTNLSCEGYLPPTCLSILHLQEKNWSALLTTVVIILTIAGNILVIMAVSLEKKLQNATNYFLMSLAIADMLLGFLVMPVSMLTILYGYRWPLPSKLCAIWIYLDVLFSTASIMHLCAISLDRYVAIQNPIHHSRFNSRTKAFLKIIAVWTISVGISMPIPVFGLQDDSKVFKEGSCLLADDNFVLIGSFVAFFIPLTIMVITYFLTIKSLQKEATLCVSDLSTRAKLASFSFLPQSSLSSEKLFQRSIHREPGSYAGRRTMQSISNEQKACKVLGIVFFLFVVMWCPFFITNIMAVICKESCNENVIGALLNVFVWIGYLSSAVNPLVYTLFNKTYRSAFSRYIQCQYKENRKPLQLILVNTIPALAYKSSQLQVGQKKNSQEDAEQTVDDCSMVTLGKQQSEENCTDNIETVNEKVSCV
UniProt Q8MI09, whole entry: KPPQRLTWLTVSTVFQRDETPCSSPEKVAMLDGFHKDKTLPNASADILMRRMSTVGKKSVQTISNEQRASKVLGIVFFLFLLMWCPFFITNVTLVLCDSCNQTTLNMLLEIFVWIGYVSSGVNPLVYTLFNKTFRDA

Tests used:
[1] = target: 5-hydroxytryptamine receptor 2A (Rattus norvegicus, UniProt P14842)
[2] = target: 5-hydroxytryptamine receptor 2B (Bos taurus, UniProt Q8MI09)

Row | Compound | Ki [1] [nM] | Ki [2] [nM]
1 | CCc1cc(OC)c(CC(C)N)cc1OC (configuration not stated) | 0.54 | 
2 | CN1C[C@H](CNC(=O)OCc2ccccc2)C[C@@H]2c3cccc4c3c(cn4C)C[C@H]21 [METERGOLINE] |  | 2.3
